Our source for the Potency values is PubChem BioAssay AID2576 (National Center for Advancing Translational Sciences (NCATS), 2010).

Chains of the proteins cited; added tags and fusions are not shown.
UniProt P14618, whole entry, looked up: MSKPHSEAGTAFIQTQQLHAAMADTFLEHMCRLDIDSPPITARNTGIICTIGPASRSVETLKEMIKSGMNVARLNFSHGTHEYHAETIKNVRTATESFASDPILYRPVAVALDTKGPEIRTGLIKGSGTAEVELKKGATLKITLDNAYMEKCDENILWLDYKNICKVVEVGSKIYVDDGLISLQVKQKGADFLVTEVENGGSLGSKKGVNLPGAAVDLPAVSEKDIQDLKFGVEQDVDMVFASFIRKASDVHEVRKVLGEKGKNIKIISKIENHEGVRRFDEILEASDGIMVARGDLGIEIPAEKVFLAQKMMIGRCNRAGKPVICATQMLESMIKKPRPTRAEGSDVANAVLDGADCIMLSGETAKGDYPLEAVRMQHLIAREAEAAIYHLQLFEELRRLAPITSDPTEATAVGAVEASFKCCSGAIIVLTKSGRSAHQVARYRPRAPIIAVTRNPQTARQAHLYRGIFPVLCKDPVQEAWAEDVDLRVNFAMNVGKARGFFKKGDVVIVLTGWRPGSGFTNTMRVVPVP

The entries are a selection whose mix differs from that of the whole data set. Results filed as inconclusive are left out. Activity calls are given as the source filed them. The call rests on the fitted dose curve; in most records, active means well fitted activation curve with a large enough effect; inconclusive means small, poorly fitted or top-dose-only effect, or effect the other way; inactive means flat fitted curve, though single readings scatter.

The target of this experiment is Pyruvate kinase PKM (Homo sapiens) (UniProt P14618). Put plainly: Secondary LDH Assay for Activators of Human Pyruvate Kinase M2 isoform: for Probe SAR. To be noted: purified hPK-M2, LDH-coupled NADH fluorescence kinetic. The text has this:
NIH Chemical Genomics Center [NCGC] Matthew G. Vander Heiden, M.D., Ph.D. [Harvard Medical School, 77 Avenue Louis Pasteur, Boston, MA 02115] NCGC Assay Overview: Human pyruvate kinase muscle 2 (hPK-M2)enzyme was supplied as a highly purified (>95% pure) preparation from Harvard Medical School and a secondary assay was used to evaluate compounds. This assay couples the formation of pyruvate from hPK-M2 using lactate dehydrogenase (LDH) and NADH. The depletion of NADH is followed in a fluorescent-based kinetic assay that follows the formation of pyruvate to lactate, as catalyzed LDH (described by Hannaert et al., 2002)1 Pyruvate kinase substrates, PEP and ADP, were present in the assay at 0.1 mM and 4 mM respectively. In this kinetic assay initial rates were determined by following the fluorescence of NADH depletion.
NCGC Assay Protocol Summary: Three uL of substrate mix (final concentration, 50 mM Tris-Cl pH 8.0, 200 mM KCl, 15 mM MgCl2, 0.1 mM PEP, 4.0 mM ADP, and 0.2 mM NADH) was dispensed into black-solid 1536 well plates. 23 nL of compounds were delivered by a pin tool and 1 uL of enzyme mix (final concentrations, 10 nM hPK-M2 and 1 uM of LDH) was added. Plates were immediately placed in ViewLux (Perkin Elmer) and NADH fluorescence was determined at 30 second exposure intervals for between 3 and 6 minutes. […]
As to `Nc1cccc(S(=O)(=O)N2CCCN(S(=O)(=O)c3ccc4c(c3)OCCO4)CC2)c1`, the Potency is active: 91.9 nM.
